scFv variants of Ab-14 (light chain) against a SARS-CoV-2 spike peptide

Antigen: PDVDLGDISGINAS, a 14-residue peptide of the SARS-CoV-2 spike HR2 region.

Each scFv is VH, a 15-residue (Gly4Ser)3 linker, VL, as in the parent Ab-14, and differs from it in the CDRs of the light chain only.
VH: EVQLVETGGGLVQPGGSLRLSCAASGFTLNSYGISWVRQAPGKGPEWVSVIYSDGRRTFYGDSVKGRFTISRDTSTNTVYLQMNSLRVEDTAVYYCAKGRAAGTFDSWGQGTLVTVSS
VL: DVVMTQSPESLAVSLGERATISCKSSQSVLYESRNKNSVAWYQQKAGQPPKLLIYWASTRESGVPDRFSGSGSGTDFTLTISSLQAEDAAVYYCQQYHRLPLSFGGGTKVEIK

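The parent was found by panning a naive human phage display library on the peptide. This is the validation round: designs drawn from the data on random variants, tested in the same kind of assay. Their group label is 14L_En_Gen (En: ensemble of fine-tuned language models; Gen: genetic algorithm). AlphaSeq pools MATa yeast showing the antibodies with MATalpha yeast showing the peptide. After mating in shaken culture at 30 °C for 16 h, diploids were selected and their barcode pairs sequenced. Read counts were normalised to the haploid input and turned into Kd by a linear fit to BCL2-family pairs of known affinity, for each replicate. Mating was done six times.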

Each variant is given by its three light chain CDRs, as the data file delimits them; those of the parent are KSSQSVLYESRNKNSVA, WASTRES, QQYHRLPLS.
The read-out is the apparent dissociation constant on a log10 scale (nM): the lower, the stronger.
A pair that was not seen in that replicate is written "nd"; this usually means weak binding, but a binder can also be missed.
A sequence measured in both rounds can read differently, since the two assays cover different ranges.
Nonspecific signal, from three strains lacking the peptide, appeared in 4% of pairings of all light chain designs, centred on 2.64 (5% of these signals below 1.59); values are not corrected for it. Also given: how often the same scFv was detected with the empty control strains, with their mean in brackets.
The authors' rule: three or more of the six replicates give a measured affinity, fewer mean a poor binder.

CDR-L1	CDR-L2	CDR-L3	log10 Kd, replicates	signal with controls
MISQVMNTLTRHGNNVA	DLEERED	QQYFRLPLS	nd / nd / nd / nd / nd / nd	0/18
TISQLMNMGQFAINSVA	QASIRNE	QQYDRLPLM	0.57 / 0.56 / 0.44 / 0.38 / 0.39 / 0.56	3/18 (2.58)
MVNGIMDHLSKQTNNVA	ETETREE	QQYDRLPLS	1.20 / 0.93 / 0.74 / 1.16 / 0.70 / 0.91	0/18
MVSQLMLWGLHAKNSIA	EAVTRLN	QQYDRLPLF	3.07 / nd / nd / nd / nd / nd	1/18 (0.87)
HIGGVLEGNNVKGRSVA	HMNTRED	QQYDRLPLS	0.48 / 0.18 / 0.34 / 0.24 / 0.19 / 0.09	1/18 (1.42)
IVSQLMLWGLHAKNSIA	EAQTRLN	QQYERLPLF	nd / 1.76 / 0.57 / 1.43 / 1.71 / 1.04	0/18
KLTMITGLEKVIGNNVA	EMETREK	QQYNRLPLS	1.14 / 1.15 / 1.00 / 1.10 / 1.01 / 0.89	1/18 (2.89)
TISQMTSWMSNKKNNVA	EVTTREA	QQYDRLPLT	0.83 / 1.39 / 1.16 / 0.79 / 0.84 / 0.83	0/18
MVTQMAMSGMTNKRSVA	NAETREK	QQYHRLPLI	nd / nd / nd / nd / nd / nd	0/18
TISMVMNHMTRIDNNVA	NQDMREN	QQYDRLPLS	1.35 / 1.20 / 0.95 / 1.31 / 0.97 / 1.25	0/18
MISQLINMGQFAINSVA	QASLRCN	QQYDRLPLM	nd / nd / nd / nd / nd / nd	1/18 (0.93)
TISQMSTLFSQSINNVA	EVSTRLN	QQYDRLPLM	0.63 / 0.66 / 0.39 / 0.36 / 0.62 / 0.74	0/18
HITMGMYVAGRHHSSIA	QAEERAK	QQYDRLPLS	1.31 / 1.50 / 1.07 / 1.19 / 0.83 / 1.25	0/18
KLTSITGTEKVRGNNVA	EMETREQ	QQYNRLPLS	0.65 / 0.38 / 0.39 / 0.56 / 1.07 / 0.48	4/18 (2.66)
KISMLLNMTFQMSNNVA	EMATREK	QQYNRLPLS	0.85 / 0.76 / 1.26 / 0.70 / 1.19 / 1.12	0/18
KLYSVTGTEKVNGNNVA	EMETRER	QQYNRLPLA	0.24 / -0.32 / 0.10 / -0.34 / -0.03 / 0.16	1/18 (2.61)
KLSVSYGILEMYRNSVA	QNSTREE	QQYDHLPLS	nd / nd / nd / nd / nd / nd	0/18
MISNVMNSLTHTGNNVA	DLQEREE	QQYFRLPLS	2.35 / 1.57 / 1.37 / 1.22 / 1.15 / 1.53	1/18 (2.38)
MISQILNMGSFAINSVA	QASIRNE	QQYDRLPLM	0.32 / 0.85 / 0.99 / 0.74 / 0.39 / 0.71	0/18
IVSQLMIWGMHVKNSIA	EAELRLN	QQYDRLPLI	1.54 / 1.61 / 1.98 / nd / nd / 2.23	1/18 (1.64)
KISQMVRVGATVSNSIA	EEVTRAK	QQYHRLPLS	nd / nd / nd / nd / nd / nd	0/18
KIGMTLNQLMHKKNNVA	DLVMREQ	QQYHRLPLS	1.33 / 2.82 / 0.60 / 0.73 / 1.19 / 0.72	0/18
QIGMLLNFESKIVNNVA	QMETRVS	QQYDRLPLS	0.68 / 1.01 / 0.83 / 0.76 / 0.94 / 0.64	0/18
KIGMTLNQLMHQKNNVA	DLVEREN	QQYFRLPLS	0.50 / 0.54 / 0.07 / 3.09 / 0.94 / 0.97	0/18
MMSQVTGQGMTHRNNVA	QTSTREP	QQYDRLPLV	nd / 1.46 / 1.21 / 2.37 / 2.31 / 1.41	0/18
KISQMVRVGSTKGNSIA	EEATRAD	QQYHRLPLS	0.77 / 0.77 / 0.53 / 0.98 / 0.75 / 0.59	1/18 (2.90)
KISMLTNQTFESGNNVA	EMATREN	QQYHRLPLS	1.46 / 2.22 / 1.13 / 0.51 / 0.67 / 1.44	0/18
HMSVLTLQGMRHRNSVA	QMTTREN	QQYDRLPLS	2.33 / 3.03 / 2.21 / 2.20 / 1.84 / 2.19	4/18 (3.41)
MVSQLMWWGMHAKNSIA	EAQTRIN	QQYDRLPLF	nd / nd / nd / 2.07 / nd / nd	0/18
MMSQVTGLGTRHRNNVA	QTSTREP	QQYDRLPLI	0.70 / 0.71 / 0.72 / 0.71 / 0.64 / 0.98	3/18 (2.66)
MIYGQQRELGLMANSIA	DNVTRYD	QQYERLPLS	nd / 4.78 / nd / nd / 3.99 / 3.30	1/18 (2.72)
SIGGFMKSLSAHINSVA	DMTNRED	QQYDRLPLS	0.12 / 0.10 / -0.11 / 0.01 / -0.01 / 0.07	0/18
TLYGLSMSMSKNKNNVA	EMTTREK	QQYDRLPLV	0.65 / 0.42 / 0.78 / 0.37 / 0.41 / 0.63	0/18
MVYQAAMMGTSTRNSIA	NAEMRPD	QQYHRLPLE	1.13 / 1.29 / 1.20 / 1.08 / 1.27 / 1.43	0/18
TLYGLSNSMSKNKNNVA	EMTTREK	QQYDRLPLV	0.42 / 0.38 / 0.59 / 0.43 / 0.27 / 0.78	2/18 (3.06)
IVSQLMLWGYHASNSIA	EAQTRLN	QQYDRLPLF	nd / 1.89 / 1.22 / 1.13 / 3.92 / 1.56	2/18 (2.29)
MLSQMTGLGQKVRNSVA	QASMRIN	QQYHRLPLM	nd / nd / nd / nd / nd / nd	0/18
TISQLTSLFSQSINNVA	EVSMREE	QQYDRLPLA	1.89 / 1.14 / 1.22 / 1.97 / 0.58 / 1.48	0/18
MISQVMNTLTRNGNNVA	DLQNREK	QQYFRLPLS	0.80 / 1.16 / 0.74 / 1.20 / 0.66 / 1.85	0/18
MMSQVTGLGQRHRNNVA	QTSTRED	QQYDRLPLI	0.64 / 0.99 / 0.76 / 0.75 / 1.01 / 1.09	2/18 (2.59)
HISMLTLQGMRQRNSVA	QMTTREN	QQYDRLPLA	0.81 / 0.40 / 0.81 / 0.84 / 0.80 / 0.78	2/18 (2.60)
KLYSVTGTEKVNGNNVA	EMETREK	QQYNRLPLS	0.41 / 0.49 / 0.46 / 0.22 / 0.45 / 0.51	2/18 (2.43)
MVSQLMLWGMHVKNSIA	EAVTRLN	QQYDRLPLI	nd / nd / nd / nd / nd / nd	0/18
HMSMITLGGMRARNSVA	QMTTREN	QQYDRLPLA	0.76 / 0.92 / 0.68 / 0.75 / 0.98 / 1.06	0/18
MISQLWNMGQFAINSVA	QASERCN	QQYDRLPLM	1.10 / 1.57 / 0.34 / 0.41 / 0.33 / 0.65	1/18 (2.98)
HITMGMYVKGRHTSNIA	QAETRAK	QQYDRLPLI	1.33 / 1.28 / 0.68 / 0.48 / 0.98 / 0.97	0/18
QIGMLLNFELQKINNVA	QMETRVK	QQYDRLPLS	0.89 / 1.08 / 1.18 / 1.05 / 0.84 / 0.68	0/18
KLSMLTETEHVNRNSVA	ELVTRMS	QQYNRLPLS	nd / 2.53 / 1.37 / 1.93 / nd / 2.51	0/18
KIGMTLNQLMHQKNNVA	DLVEREN	QQYHRLPLS	-0.34 / -0.44 / -0.12 / 0.14 / -0.54 / -0.44	0/18
HLGMTLNTEMMKKNNVA	DLVTREN	QQYHRLPLS	0.52 / 0.20 / 0.29 / 0.13 / 0.12 / 0.15	2/18 (3.09)

Source: Li et al. 2023 (doi:10.1038/s41467-023-39022-2), MIT Lincoln Laboratory and A-Alpha Bio; data file from the FLAb repository.